Measured values from patent publication US12226454B2, “Pharmaceutical compositions and use thereof for relieving anticancer drug resistance and enhancing sensitivity of anticancer drug” (Rise Biopharmaceuticals Inc., priority 2015, dated 2025).

Test system: IL-8, CXCR1 and CXCR2 mRNA in HCC827
Conditions: HCC827, gefitinib-treated

COc1cc2ncnc(Nc3ccc(F)c(Cl)c3)c2cc1OCCCN1CCOCC1 [Gefitinib]
CXCR1 and CXCR2 mRNA expression: not induced obviously | IL-8 mRNA expression: not induced obviously
